This is a selection; strong and weak results do not stand in their true shares. Results filed as inconclusive are left out. The source made the active and inactive calls. Calls come from the whole dose curve; as a rule, active = well fitted inhibition curve with a large enough effect (not every such curve was filed as active); inconclusive = small, poorly fitted or top-dose-only effect, or another doubt; inactive = no such curve, though single readings can be large or run the other way.
biological target: Aldehyde dehydrogenase 1A1 (Homo sapiens) (UniProt P00352); experiment: qHTS Assay for Inhibitors of Aldehyde Dehydrogenase 1 (ALDH1A1); conditions: Purified ALDH1A1, NADH fluorescence, propionaldehyde substrate; series mostly up to 75.3 µM; activity, negative = inhibition: at the top concentration;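 for activity, negative = inhibition: plate controls were no enzyme wells and a reference inhibitor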
Potency is the fitted concentration of half-maximal effect.

Sequences of proteins named here, by UniProt entry; tags and fusion partners are left off.
UniProt P00352, whole entry: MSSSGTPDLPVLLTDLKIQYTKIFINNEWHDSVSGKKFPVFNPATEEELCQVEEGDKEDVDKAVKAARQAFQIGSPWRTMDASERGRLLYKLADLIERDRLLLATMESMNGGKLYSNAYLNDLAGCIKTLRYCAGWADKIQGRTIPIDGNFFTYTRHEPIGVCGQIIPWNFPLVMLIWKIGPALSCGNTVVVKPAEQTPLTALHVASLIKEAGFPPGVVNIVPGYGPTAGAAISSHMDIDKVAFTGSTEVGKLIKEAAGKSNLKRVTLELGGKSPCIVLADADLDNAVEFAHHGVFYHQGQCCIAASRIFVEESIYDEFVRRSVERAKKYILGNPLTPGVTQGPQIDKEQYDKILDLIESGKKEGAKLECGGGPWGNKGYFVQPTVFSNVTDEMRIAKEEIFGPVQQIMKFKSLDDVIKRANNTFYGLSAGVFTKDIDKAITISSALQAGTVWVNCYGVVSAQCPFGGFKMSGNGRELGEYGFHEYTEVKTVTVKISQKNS

SMILES | Potency | activity, negative = inhibition
COc1ccc(NC2CCN(C(=O)OC(C)(C)C)CC2)cc1 | active: 8.91 µM | 
O=C(OC1CN2CCC1CC2)c1ccc([N+](=O)[O-])cc1 (stereo unspecified) |  | inactive: -10.8%
NC1CCCCC1.NP(=O)(O)N(CCCl)CCCl |  | inactive: 17.1% [at 13.5 µM]
N/C(=N\O)c1c(N)no[n+]1[O-] |  | inactive: 3.18%
ClP(Cl)(Cl)(Cl)Cl | active: 2.51 µM | 
CCOC(=O)C(CC)C1=NC(C)(C)Cc2ccccc21.O=[N+]([O-])c1cc([N+](=O)[O-])c(O)c([N+](=O)[O-])c1 (stereo unspecified) |  | inactive: -0.218%
